# Values quoted from earlier work as cited in paper PMC10304291, “THC-Reduced Cannabis sativa L.—How Does the Solvent Determine the Bioavailability of Cannabinoids Given Orally?” (Nutrients, 2023).
# Design: method as in PMID 21796370
# Conditions: Cremophor-based studies; cited from earlier work
structure (smiles),measurement,value
"C=C(C)[C@@H]1CCC(C)=C[C@H]1c1c(O)cc(CCCCC)cc1O [CBD, cannabidiol]",brain/whole-blood ratio,2.64
